# TrxR1 substrate: substrates of rat thioredoxin reductase 1 | purified TrxR1 substrate turnover, NADPH consumption readout | actives 0.01% (n = 390,000) | AID 588456 | Potency, µM (series often up to 114 µM), for the others: at the highest dose activity change, negative = substrate turnover | O89049; further: potency means the concentration at half of the fitted maximal effect; on the % scale 0 is the no-effect control and ±100 the full control effect; nearly all actives have a fitted effect of over 50% in size
#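 Rat TrxR1, dispensed at 90 nM, was prereduced with 400 uM NADPH (final) for 5 min at ~22 deg C, then incubated with compound 15 min before 400 uM selenite. A first-read NADPH fluorescence drop versus no-compound background flagged substrates.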
# PINK1 modulator: PINK1 expression modulation. PINK1 immunofluorescence, high-content cytometry, 24 h. Potency, µM (series often up to 76.6 µM), for the others: top-dose activation (PINK1 increase), actives largely listed as activators. actives 0.2% (n = 410,000); active means well fitted activation curve with a large enough effect; inconclusive means small, poorly fitted or top-dose-only effect; cell line not stated here; further: potency means the concentration at half of the fitted maximal effect; % of control where 0% means no effect; nearly all actives have a fitted effect of over 65% in size
#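 Cells are seeded, rested 12 hours, then given compound at five concentrations or DMSO for 24 hours. After fixation, blocking and antibody staining, PINK1 amount and mitochondrial localization are scored; CCCP serves as control.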
# miR-21 FLuc: miR-21 reporter, rising signal; Potency, µM (doses to about 38.3 µM), without a hit: at the top dose reporter change, positive = more light; HeLa miR-21 FLuc reporter, luciferase, 48 h; 340,000 tested, under 10 active; active = well fitted rising curve with a large enough effect; inconclusive = small, poorly fitted or top-dose-only effect; inactive = no such curve, though single readings can be large or run the other way;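 further: % of control where 0% means no effect; miR-21 action dims this reporter so a rising signal means less miR-21 action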
#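 Compounds were titrated across several concentrations (up to approximately 40 uM) and incubated 48 hours with HeLa miR-21-FLuc reporter cells (miR-21 target sequence downstream of FLuc, endogenous miR-21). Readout was firefly luciferase luminescence after lytic detection reagent.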
# TrxR1 inh: inhibitors of rat thioredoxin reductase 1 | O89049 | recombinant rTrxR1, NADPH fluorescence consumption, selenite substrate | Potency, µM (doses to about 114 µM), for inactives: at the top dose activity change, negative = inhibition, actives largely listed as inhibitors | actives 1% (n = 390,000); further: potency means the concentration at half of the fitted maximal effect; on the % scale 0 is the no-effect control and ±100 the full control effect; nearly all actives have a fitted effect of over 65% in size
#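 Rat TrxR1 (90 nM in the dispensed reagent) was pre-reduced with 400 uM NADPH for 5 min at room temperature, then incubated with compound for 15 min. After 400 uM selenite was added, NADPH fluorescence (Ex 340/Em 450 nm) was followed for 8 min.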
# GALK inh: blocks human galactokinase activity; Potency, µM (top dose mostly 57.5 µM), inactives show at the highest dose activity change, negative = inhibition, usual class: inhibitors; P51570; Purified GALK, Kinase-Glo residual ATP luminescence; actives 0.007% (n = 270,000); further: potency means the concentration at half of the fitted maximal effect; on the % scale 0 is the no-effect control and ±100 the full control effect
#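 Compounds were pin-transferred into ATP buffer (35 uM final), then GALK plus galactose (5 nM, 100 uM final) was added. After 1 h at room temperature, Kinase-Glo Plus was added and luminescence read after 10 min.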
# * = called active by the depositor; ? = inconclusive; · = not tested or not shown; [ ] = another dose, or the depositor's remark. Hits are enriched below; roughly 1.1% of the tested compounds scored in any of these assays. Unless noted, the call rests on the fitted dose curve; in most records, active means well fitted curve in the direction sought with a large enough effect; inconclusive means small, poorly fitted or top-dose-only effect, or another doubt; inactive means no such curve, though single readings can be large; an effect the other way counts as inactive or inconclusive.
cpd | Molecule | TrxR1 inh | GALK inh | TrxR1 substrate
1 | Cc1ccc(S(=O)(=O)N/N=C/c2ccc(O)c(O)c2)cc1[N+](=O)[O-] | 11.2µM* | -0.8% | 1.5%
2 | Cc1ccc(S(=O)(=O)N/N=C/c2ccccc2O)cc1[N+](=O)[O-] | 10.5%[57.1 µM] | 4.3% | 6.5%[57.1 µM]
3 | Cc1nc(C)n(CC(=O)N2CCOc3ccc(CN4CCN(C)C[C@@H]4c4ccccc4)cc3C2)n1 | · | · | ·
4 | COc1ccc(C(C)=O)cc1COC(=O)c1ccc(C)c(S(=O)(=O)N2CCOCC2)c1 | 35.5µM* | · | -1.8%
5 | COc1ccc(C(C)=O)cc1COC(=O)Cc1cc(OC)c(OC)c(OC)c1 | 39.8µM* | 1.0% | 4.0%
6 | COc1ccc(C(C)=O)cc1COC(=O)c1ccc(S(=O)(=O)N(C)C)cc1 | 44.7µM* | -2.2% | 4.7%
7 | COc1ccc(C(=O)OCc2cc(=O)oc3c(C)c(C)ccc23)cc1S(=O)(=O)N1CCOCC1 | · | · | ·
8 | COc1ccc(C(C)=O)cc1COC(=O)c1ccc2c(c1)OCCO2 | 56.2µM* | · | -3.9%
9 | COc1ccc(C(C)=O)cc1COC(=O)c1ccc2c(c1)OCO2 | ? | 2.3% | 15.0%[57.1 µM]
10 | CCOC(=O)N1CCN(c2cc(=O)n(-c3ccc(Br)cc3)c(=O)[nH]2)CC1 | 17.8µM* | -0.2% | -1.2%[57.1 µM]
11 | CCOC(=O)CN1C(=O)S/C(=C/c2ccc(N3CCCCC3)o2)C1=O | 50.1µM* | -0.2% | 0.2%
12 | O=C(O)CN1C(=O)/C(=C/c2ccc(N3CCCCC3)o2)SC1=S | 28.2µM* | 12.7% | 5.3%

cpd | PINK1 modulator | miR-21 FLuc
1 | -0.1% | -6.0%
2 | 2.2% | -56.4%
3 | 0.1% | ·
4 | 0.4% | ·
5 | -1.7% | 0.7%
6 | -0.4% | 6.4%
7 | -1.0% | ·
8 | 8.8% | ·
9 | 0.9% | -8.9%
10 | -0.7% | -5.6%
11 | 15.9% | -2.7%
12 | 1.1% | 0.6%

# Another view of four compounds above:
9. COc1ccc(C(C)=O)cc1COC(=O)c1ccc2c(c1)OCO2
  TrxR1 inh: ?
  GALK inh: 2.3%
  TrxR1 substrate: 15.0%[57.1 µM]
  PINK1 modulator: 0.9%
  miR-21 FLuc: -8.9%

10. CCOC(=O)N1CCN(c2cc(=O)n(-c3ccc(Br)cc3)c(=O)[nH]2)CC1
  TrxR1 inh: 17.8µM*
  GALK inh: -0.2%
  TrxR1 substrate: -1.2%[57.1 µM]
  PINK1 modulator: -0.7%
  miR-21 FLuc: -5.6%

4. COc1ccc(C(C)=O)cc1COC(=O)c1ccc(C)c(S(=O)(=O)N2CCOCC2)c1
  TrxR1 inh: 35.5µM*
  GALK inh: ·
  TrxR1 substrate: -1.8%
  PINK1 modulator: 0.4%
  miR-21 FLuc: ·

12. O=C(O)CN1C(=O)/C(=C/c2ccc(N3CCCCC3)o2)SC1=S
  TrxR1 inh: 28.2µM*
  GALK inh: 12.7%
  TrxR1 substrate: 5.3%
  PINK1 modulator: 1.1%
  miR-21 FLuc: 0.6%

# Later entries:
cpd | Molecule | TrxR1 inh | GALK inh | TrxR1 substrate
13 | COC(=O)CN1C(=O)S/C(=C/c2ccc(N3CCCCC3)o2)C1=O | 3.55µM* | -0.7% | -15.0%
14 | O=C(/C=C/c1ccccc1Cl)Nc1nc(-c2cccs2)ns1 | 10.5% | · | 11.8%
15 | CN1CCCC(CNC(=O)c2cnn(-c3ncc4c(n3)-c3ccccc3CC4)c2C2CC2)C1 (stereo not drawn) | · | · | ·
16 | Cc1ccc(C(CC(=O)N2CCOCC2)c2ccco2)cc1 (stereo not drawn) | 44.7µM* | 0.5% | 1.7%
17 | O=C(CC(c1ccccc1)c1ccco1)N1CCCCC1 (stereo not drawn) | · | -1.9% | ·
18 | C/C(CCc1oc2c(Br)cc(Br)cc2c1-c1ccc(C)o1)=N\O | 25.1µM* | -2.6% | 3.6%
19 | COc1cccc(C(=O)CN2CCN(S(=O)(=O)c3cccc([N+](=O)[O-])c3)CC2)c1 | 8.91µM* | -0.5% | -0.7%
20 | COc1ccc(C(=O)CN2CCN(S(=O)(=O)c3cccc([N+](=O)[O-])c3)CC2)cc1OC | -18.7% | -0.4% | -9.6%
21 | COc1ccc2c(c1)CCc1cnc(-n3ncc(C(=O)NCCCc4ccncc4)c3C)nc1-2 | · | · | ·
22 | CCCCC(=O)/C=C/n1c(=S)oc2ccccc21 | 2.24µM* | 1.3% | -5.3%
23 | CCOC(=O)c1c(NC(C)=O)sc2c(OCCN(CC)CC)c(Br)ccc12 | 8.7% | 2.2% | 5.7%
24 | CCOC(=O)c1c(NC(C)=O)sc2c1CCC(C=NCCCN(CC)CC)=C2Sc1ccccc1 | 3.55µM* | · | 5.9%

cpd | PINK1 modulator | miR-21 FLuc
13 | 8.91µM* | -11.8%
14 | 7.2% | -35.4%
15 | 1.5% | ·
16 | 1.6% | -11.0%
17 | · | -6.0%
18 | ? | -16.3%
19 | -0.2% | -2.7%
20 | 1.7% | 1.6%
21 | 2.0% | ·
22 | 2.3% | 20.4%
23 | 3.0% | -20.3%
24 | 0.7% | ·

# Following part:
cpd | Molecule | TrxR1 inh | GALK inh | TrxR1 substrate
25 | Cc1ccc(N(CC(=O)N2CCN(c3cc(C)ccc3C)CC2)S(=O)(=O)c2c(C)nn(C)c2C)cc1 | 10.9% | · | -1.7%
26 | COc1cccc(CNC(=O)c2cc(C)nc3c2c(C)nn3-c2cccc(F)c2)c1 | 66.9% | · | 97.6%
27 | Cc1ccc(Cn2c(C(C)Nc3nc(-c4ccc(Cl)c([N+](=O)[O-])c4)cs3)nc3cc(C(F)(F)F)ccc32)cc1 (stereo not drawn) | 11.7% | · | 1.3%
28 | CCCn1nc([N+](=O)[O-])c(C(C#N)c2nc3ccccc3o2)c(Cl)c1=O (stereo not drawn) | 11.2µM* | -2.9% | -14.8%
29 | Cn1nc([N+](=O)[O-])c(C(C#N)c2ccccn2)c(Cl)c1=O (stereo not drawn) | 2.82µM* | -3.0% | -4.3%
30 | CCCCn1c(N)c(-c2nc3ccccc3o2)c2c([N+](=O)[O-])nn(CC)c(=O)c21 | 10.4%[57.1 µM] | 0.8% | -7.9%[57.1 µM]
31 | N#CC(c1ccccn1)c1ncc(C(F)(F)F)cc1Cl (stereo not drawn) | 0.6% | -3.0% | -2.2%
32 | CCn1nc([N+](=O)[O-])c(C(C#N)c2nc3cc(C(F)(F)F)ccc3s2)c(Cl)c1=O (stereo not drawn) | 31.6µM* | -9.6% | -8.9%
33 | Cc1ccc(Cn2cc(CCC(=O)NC3CCC(C)CC3)c3ccccc32)cc1 (stereo not drawn) | -17.3% | · | -7.2%
34 | CCOC(=O)N1CCC(NC(=O)c2ccc3c(c2)N(Cc2ccc(F)cc2)C(=O)c2ccccc2S3(=O)=O)CC1 | 14.0% | · | 0.3%
35 | CSc1nc(-c2ccco2)nn1C(=O)c1ccccc1 | 20µM* | 0.2% | -13.3%
36 | CSc1nc(-c2ccco2)nn1C(=O)c1ccco1 | ? | -2.1% | 2.9%

cpd | PINK1 modulator | miR-21 FLuc
25 | 23.2% | 19.2%
26 | -0.1% | -5.7%
27 | 9.8% | ·
28 | ? | 11.8%
29 | 1.5% | 15.1%
30 | 12.9% | -8.1%
31 | ? | -3.7%
32 | ? | 21.1%
33 | 1.7% | -15.4%
34 | 0.2% | 7.4%
35 | 2.9% | -6.1%
36 | -0.5% | -6.4%

# The listing continues.
cpd | Molecule | TrxR1 inh | GALK inh | TrxR1 substrate
37 | CSc1nc(-c2ccco2)nn1C(=O)c1ccc(C)cc1 | 20µM* | -0.6% | 7.5%
38 | CC(=O)c1ccc(F)c(-c2cc(C)cc3c2OC(CNC(=O)C[C@@H]2C[C@@H](C)NC(=S)N2)C3)c1 (stereo partly drawn) | · | · | ·
39 | Cc1ccc(C2C(C#N)=C(N)SC(N)=C2C#N)cc1 | ? | -8.0% | -6.1%
40 | Cc1ccc(C2C(C#N)=C(N)SC(N)=C2C#N)c(C)c1 | 2.82µM* | 2.6% | -4.3%
41 | COC(=O)CN(C)C1CC(=O)N(c2ccc(Cl)cc2)C1=O (stereo not drawn) | 35.5µM* | -1.7% | -0.9%
42 | COc1ccc2nc(SCC(=O)NCc3ccccc3)[nH]c2c1 | -13.0% | -0.9% | -6.7%
43 | COc1ccc2nc(Sc3c([N+](=O)[O-])nc(C)n3Cc3ccccc3)[nH]c2c1 | 7.08µM* | 0.0% | -11.6%
44 | CS(=O)(=O)c1cc([N+](=O)[O-])c(Sc2nc3ccccc3[nH]2)c([N+](=O)[O-])c1 | 1.26µM* | -1.2% | -7.1%
45 | Cc1nc([N+](=O)[O-])c(Sc2nc3ccccc3[nH]2)n1Cc1ccccc1 | 3.55µM* | 0.1% | -2.1%
46 | Cn1cnc([N+](=O)[O-])c1Sc1nc2ccccc2[nH]1 | 3.55µM* | -5.4% | 6.3%[57.1 µM]
47 | CC(=O)c1cccc(NC(=O)c2ccc3nc(C(C)C)oc3c2)c1 | 11.9%[57.1 µM] | · | -4.6%[57.1 µM]

cpd | PINK1 modulator | miR-21 FLuc
37 | 2.0% | -11.7%
38 | -0.2% | ·
39 | 3.0% | -11.9%
40 | 4.7% | -1.4%
41 | -2.6% | 0.6%
42 | 3.5% | -5.5%
43 | -1.1% | 20.4%
44 | -0.3%[38.3 µM] | ?
45 | -0.3% | ?
46 | -1.1% | ?
47 | -0.4% | -11.4%

# Screening results deposited in PubChem by National Center for Advancing Translational Sciences (NCATS).
